Data reported in publication PMC5766324.

Biological target: tubulin (UniProt P02550)
Experiment: ELISA

EC50: 607 nM
Substance: CRMP2-6XHis (from UniProt P47942 1-572) (natural protein)
